Several values for one entry are separate records, joined by “and”; a condition that tells them apart may be missing. Equal entries are not always repeated. Where two headings read alike, the source gives them in different places.
How the values were obtained:
[1] = system: HS5 cells; test: Apoptosis (cleaved PARP/caspase-3, Caspase-Glo 3/7); type: cell-based; details: 10 µmol/L
Protocol: The determination of caspase-3/7 levels as an indication for apoptosis activity was performed using a Caspase-Glo 3/7 assay kit from Promega according to manufacturer's instructions. Cells were seeded at 1 × 10^4 cells per well and treated with 10 µmol/L of IAP antagonists for various indicated timings, followed by bioluminescence measurement using luminescent plate reader, Tecan Infinite200 Pro. The activity of apoptosis was also measured by flow cytometry using the Dead Cell Apoptosis Kit with Annexin V FITC and PI (Thermo Fisher Scientific) according to manufacturer's instructions. Cells harvested from lentiviral infection were subjected to Annexin V (2.5 µL) and PI (40 ng/mL, 0.5 µL) staining, followed by flow cytometric analysis using BD LSRFortessa cell analyzer with excitation/emission spectra of 494 nm/518 nm for FITC and 535 nm/617 nm for PI.
FIGURE 2 Specific loss of XIAP expression, not c-IAP1, is required for mediating apoptosis in high-risk neuroblastoma cells. A, Summary of IAP antagonists’ efficacy in killing neuroblastoma cells. […] C, Graphical representation showing the fold change of caspase-3/7 activity relative to vehicle controls after treatment with 10 µmol/L of either A4, B3, or BV6 at indicated timings (data were expressed as mean ± SD of three independent experiments conducted in duplicates; *, P < 0.05). […]

Protein sequences, listed by entry. Tags and fused reporters are not part of them.
UniProt P98170, whole entry: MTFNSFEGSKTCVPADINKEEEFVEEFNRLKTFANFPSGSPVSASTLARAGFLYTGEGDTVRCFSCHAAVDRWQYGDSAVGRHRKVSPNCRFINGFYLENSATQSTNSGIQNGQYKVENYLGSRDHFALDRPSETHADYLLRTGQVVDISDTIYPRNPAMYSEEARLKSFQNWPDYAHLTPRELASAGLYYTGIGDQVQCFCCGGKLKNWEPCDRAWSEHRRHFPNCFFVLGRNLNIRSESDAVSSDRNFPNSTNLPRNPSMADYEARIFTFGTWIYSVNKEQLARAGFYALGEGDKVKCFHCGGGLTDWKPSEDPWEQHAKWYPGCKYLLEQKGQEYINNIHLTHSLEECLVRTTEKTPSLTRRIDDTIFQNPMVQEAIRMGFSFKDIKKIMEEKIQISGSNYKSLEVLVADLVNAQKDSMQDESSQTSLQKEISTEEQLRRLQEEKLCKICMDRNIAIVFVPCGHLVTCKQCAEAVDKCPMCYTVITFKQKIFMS

[2] = molecular target: endogenous XIAP (Homo sapiens, UniProt P98170); test: Degradation of endogenous luciferase-tagged XIAP (HiBiT/LgBiT), real-time luminescence; type: cell-based; details: for DC50: read-out: DC50, degradation curve at 2h, 2 hours
[3] = Body weight and tolerability in PDX mice
Protocol: (§1) Tumor samples collected from neuroblastoma PDXs were infected with luciferase lentivirus. Tumor analysis was performed by intraperitoneal injection of D-luciferin solution (150 mg/kg; PerkinElmer) into the mice and imaged with an IVIS spectrum. Bioluminescent signals were then quantified using Living Imaging 4.4 (Caliper Life Sciences). After 4 weeks of tumor implantation into retroperitoneal space of mice, tumor-bearing mice were randomly assigned to receive either vehicle (DMSO; 1 mL/kg) or XIAP-specific antagonist A4 (10 mg/kg; n = 9 per group). All agents were administered by intraperitoneal injection twice weekly for consecutive 3 weeks. General health state of the mice were monitored weekly and were euthanized upon reaching humane endpoints. Survival data were recorded and Kaplan–Meier curves were plotted using GraphPad Prism software.
(A-B) Immunoblot analysis of XIAP, cleaved PARP and cleaved caspase-3 expression in tumors harvested from treated neuroblastoma PDXs. Neuroblastoma PDXs were treated with 10 mg/kg A4 via intraperitoneal injection. Tumors were harvested over the following time courses of 0, 0.5, 1, 2, 4, 24 and 48 hours post-dosing. β-actin is used as internal control. (C) Average weight of vehicle-or A4-treated mice over the course of treatment.

[4] = system: MYCN-amplified neuroblastoma PDX; test: Survival and tumor analysis in orthotopic MYCN-amplified neuroblastoma PDX; type: in vivo, NOD/SCID mice
Protocol: Neuroblastoma patient-derived xenografts (PDX) were generated from MYCN-amplified tumor samples of a patient with stage III high-risk undifferentiated neuroblastoma recruited with waiver of written parental consent and child assent, under SingHealth Duke NUS CIRB protocol 2014/2079 (Modeling, Analysis, and Translational Therapeutics for Tumors of Childhood), and implanted orthotopically in the retroperitoneal space of NOD/SCID mice. All experiments were performed under the approval of the Institutional Animal Care and Use Committee (SingHealth Duke NUS IACUC #1066). Histologic morphology of PDX tumors were compared with the original patient tumors at each passage to establish their congruence, and also confirmed with supporting IHC stains with neuroblastoma markers PHOX2B, TH and GD2 Synthase.
as §1
FIGURE 4 Treatment with XIAP-specific antagonist A4 prolongs and improves overall survival in high-risk neuroblastoma PDXs. A, Top, Immunoblot analysis of XIAP, cleaved PARP and cleaved caspase-3 expression in tumors harvested from treated neuroblastoma PDXs. Neuroblastoma PDXs were treated with 10 mg/kg A4 via intraperitoneal injection. Tumors were harvested over the following time courses of 0, 0.5, 1, 2, 4, 24, and 48 hours after dosing. β-actin is used as internal control. Bottom, Graphical representation of densitometry ratio for XIAP expression normalized to β-actin in tumors harvested from neuroblastoma PDXs as described in A (Supplementary Data S2). Values were expressed as mean ± SD with n = 3/timepoint. B, Kaplan–Meier survival plot of MYCN-amplified neuroblastoma PDXs (n = 9/treatment group). […] The mice were monitored over a period of 7 weeks, including 4 weeks of stabilizing implantation and subsequent 3 weeks of treatment period. log-rank (Mantel–Cox test) derived from Kaplan–Meier survival plot was used for statistical comparisons between groups with *, P < 0.05. […]

[5] = 10 mg/kg i.p. twice weekly, 3 weeks, n = 9

Which results are given for `COC(=O)c1[nH]c2ccc(Cl)cc2c1NC(=O)CN1CCN(Cc2ccccc2)CC1`?
apoptosis [1]: minimal apoptosis observed; time to rapid degradation of XIAP posttreatment ([2]; BE(2)-C and KELLY cells): 10 to 15 min; DC50 ([2]; BE(2)-C): 22.3 µM; DC50 ([2]; KELLY): 3.94 µM and 3.9 µM; weight loss or adverse effects ([3]; 10 mg/kg, twice-weekly dosing for up to 3 weeks): no substantial weight loss or adverse effects; weight, single animals ([3]; wk 7 d 1, 10 mg/kg i.p. twice weekly from week 4): 30 g and 28.3 g and 31.7 g; tumor size versus vehicle (bioluminescence imaging) ([4]; 10 mg/kg i.p. twice weekly, 3 weeks): no observable difference in tumor size; mice alive at the end of the treatment period [4, 5]: more than 50%; overall survival (Kaplan–Meier) versus vehicle [4, 5]: significantly longer overall survival; cleaved caspase 3 and TUNEL staining of tumors ([4]; 10 mg/kg, n = 5 tumors per group): increased positive staining for cleaved caspase 3 and TUNEL IHC

— paper PMC10681007, “Targeted Degradation of XIAP is Sufficient and Specific to Induce Apoptosis in MYCN-overexpressing High-risk Neuroblastoma” (Cancer Research Communications, 2023)
